Experimental data from PubChem BioAssay AID687020 (Broad Institute, 2013).
The list shows a part of the results, in another mix than the full data. Results with a measured potency or affinity are listed apart. The source made the active and inactive calls. How the calls were made is not given here.

Assay: Vero cell toxicity, dose response, cytotoxicity control, plate reader, cherry-pick samples (AID 687020);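 further: compounds incubated with cells for three days before luminescence read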
Conditions: Vero cells toxicity; at 19.5 µM (top of the series)
For `CCOC(=O)c1ccc(NP(C)(=O)Oc2ccc(Cl)cc2)cc1` (stereo unspecified), the activity change, negative = toxicity was inactive: -14.3%.
